Measured values taken from ChEMBL document CHEMBL1124221.

The chains behind the UniProt entries cited, without tags or fusion partners.
UniProt P41144, whole entry: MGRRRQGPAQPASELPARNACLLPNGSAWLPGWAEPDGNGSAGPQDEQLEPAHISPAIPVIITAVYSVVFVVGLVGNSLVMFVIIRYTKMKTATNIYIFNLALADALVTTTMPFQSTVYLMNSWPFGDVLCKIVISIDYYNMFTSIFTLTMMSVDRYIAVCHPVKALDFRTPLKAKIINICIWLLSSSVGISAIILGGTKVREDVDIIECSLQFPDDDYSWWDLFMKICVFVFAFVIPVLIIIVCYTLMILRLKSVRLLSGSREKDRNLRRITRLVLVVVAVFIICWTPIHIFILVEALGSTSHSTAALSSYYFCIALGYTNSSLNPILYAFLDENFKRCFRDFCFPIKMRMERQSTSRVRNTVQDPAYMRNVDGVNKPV
UniProt P97266, whole entry: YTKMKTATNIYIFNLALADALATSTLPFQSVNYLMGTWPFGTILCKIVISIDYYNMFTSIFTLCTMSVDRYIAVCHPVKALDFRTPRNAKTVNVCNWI

Tests used:
[1] = system: Rattus norvegicus; experiment: Dose (po) required to produce 50% of the maximum possible analgesic effect, evaluated by rat-paw pressure assay
[2] = system: Rattus norvegicus; experiment: Dose (sc) required to produce 50% of the maximum possible analgesic effect, evaluated by rat-paw pressure assay
[3] = target: Kappa-type opioid receptor (Cavia porcellus, UniProt P41144); experiment: Binding affinity for the Opioid receptor kappa 1
[4] = target: Mu-type opioid receptor (Cavia porcellus, UniProt P97266); experiment: Binding affinity for the Opioid receptor mu 1
[5] = system: Rattus norvegicus; experiment: Rat-paw pressure assay was measured maximum possible analgesic effect after sc administration

Row | SMILES | MPE50 [1] | Ki [3] | Ki [4] | also measured
1 | CN(C(=O)COc1ccc(Cl)cc1)[C@@H]1CCCC[C@H]1N1CCCC1.Cl | 59 mg/kg | – | – | MPE50 [2]: 210 mg/kg
2 | CN(C(=O)COc1ccc([N+](=O)[O-])c(C(F)(F)F)c1)[C@@H]1CCCC[C@H]1N1CCCC1 | – | 0.15 µM | > 1 µM | –
3 | CN(C(=O)COc1ccc(Cl)c(Cl)c1)[C@@H]1CCCC[C@H]1N1CCCC1.Cl | – | – | – | MPE50 [5]: 240 mg/kg
4 | CN(C(=O)COc1c(Cl)cc(Cl)cc1Cl)[C@@H]1CCCC[C@H]1N1CCCC1 | – | > 10 µM | > 10 µM | –
5 | CN(C(=O)COc1ccc(Cl)cc1)[C@@H]1CCCC[C@H]1N1CCCC1 | – | 0.3 µM | 2 µM | –
6 | CN(C(=O)COc1c(Cl)cccc1Cl)[C@@H]1CCCC[C@H]1N1CCCC1.Cl | 110 mg/kg | – | – | –
7 | CN(C(=O)COc1cc(Cl)cc(Cl)c1)[C@@H]1CCCC[C@H]1N1CCCCCC1 | – | 0.072 µM | 7.9 µM | –
8 | CN(C(=O)COc1cc(Cl)c(Cl)c(Cl)c1)[C@@H]1CCCC[C@H]1N1CCCC1 | – | 0.012 µM | 0.14 µM | –
9 | CN(C(=O)COc1c(Cl)cccc1Cl)[C@@H]1CCCC[C@H]1N1CCCC1 | – | 2.1 µM | 4 µM | –
10 | CN(C(=O)COc1cc(Cl)c(Cl)c(Cl)c1Cl)[C@@H]1CCCC[C@H]1N1CCCCCCC1 | – | 0.0056 µM | 3.6 µM | –
11 | CN(C(=O)COc1cc(Cl)c(Cl)c(Cl)c1)[C@@H]1CCCC[C@H]1N1CCCCCCC1.Cl | >100 mg/kg | – | – | –
12 | CN(C(=O)COc1cc(Cl)c(Cl)c(Cl)c1Cl)[C@@H]1CCCC[C@H]1N1CCCCCCC1.Cl | >300 mg/kg | – | – | –
13 | Cc1cc(OCC(=O)N(C)[C@@H]2CCCC[C@H]2N2CCCCCC2)cc(C)c1Cl | – | 0.004 µM | 0.46 µM | –
14 | CN(C(=O)COc1ccc(Cl)c(Cl)c1)[C@@H]1CCCC[C@H]1N1CCCC1 | – | 0.035 µM | 0.62 µM | –
15 | CN(C(=O)COc1ccc([N+](=O)[O-])c(C(F)(F)F)c1)[C@@H]1CCCC[C@H]1N1CCCC1.Cl | >100 mg/kg | – | – | –
16 | CN(C(=O)COc1cc(Cl)c(Cl)c(Cl)c1)[C@@H]1CCCC[C@H]1N1CCCCCCC1 | – | 0.0031 µM | 0.88 µM | –
17 | CN(C(=O)COc1cc(Cl)cc(Cl)c1)[C@@H]1CCCC[C@H]1N1CCCCCC1.Cl | >100 mg/kg | – | – | –
18 | CN(C(=O)COc1cc(Cl)c(Cl)c(Cl)c1Cl)[C@@H]1CCCC[C@H]1N1CCCCCC1.Cl | >300 mg/kg | – | – | –
19 | CN(C(=O)COc1cc(Cl)c(Cl)c(Cl)c1Cl)[C@@H]1CCCC[C@H]1N1CCCCCC1 | – | 0.0064 µM | 0.72 µM | –
20 | CN(C(=O)COc1ccccc1)[C@@H]1CCCC[C@H]1N1CCCC1 | – | 0.36 µM | > 1 µM | –
21 | CN(C(=O)CCc1c[nH]c2ccccc12)[C@@H]1CCCC[C@H]1N1CCCC1 | – | > 1 µM | > 1 µM | –

Some compounds may have been tested in ways that are not shown here.
